According to publication PMC8667045, “Into Deep Water: Optimizing BCL6 Inhibitors by Growing into a Solvated Pocket” (Journal of Medicinal Chemistry, 2021):

Key:
BCL6 BTB domain [1] = biological target: T1, BCL6 BTB domain (Homo sapiens, UniProt P41182); conditions: for LE: ligand efficiency from TR-FRET pIC50; for LLE: lipophilic ligand efficiency from TR-FRET pIC50
BCL6 BTB domain [2] = biological target: T1, BCL6 BTB domain; assay: biochemical

Structure (SMILES) | LE (BCL6 BTB domain [1]) | LLE (BCL6 BTB domain [1]) | further results
Cn1c(=O)cc(NCC2CC2)c2cc(Nc3cc(C(=O)O)nc(Cl)c3C#N)ccc21 [Compound 11d, 6-Chloro-5-cyano-4-((4-((cyclopropylmethyl)amino)-1-methyl-2-oxo-1,2-dihydroquinolin-6-yl)amino)picolinic Acid] | 0.30 | 3.06 | 
N#Cc1c(Nc2ccc3[nH]c(=O)cc(N4CCCCC4)c3c2)ccnc1Cl [Compound 8b, 2-Chloro-4-((2-oxo-4-(piperidin-1-yl)-1,2-dihydroquinolin-6-yl)amino)nicotinonitrile] | 0.31 | 2.83 | 
Cc1nnc(C(C)Nc2cc(=O)n(C)c3ccc(Nc4ccnc(Cl)c4C#N)cc23)o1 (stereo not shown) [Compound 13c, 2-Chloro-4-((1-methyl-4-((1-(5-methyl-1,3,4-oxadiazol-2-yl)ethyl)amino)-2-oxo-1,2-dihydroquinolin-6-yl)amino)nicotinonitrile] | 0.27 | 4.56 | 
N#Cc1c(Nc2ccc3[nH]c(=O)cc(N4CCOCC4)c3c2)ccnc1Cl [Compound 8d, 2-Chloro-4-((4-morpholino-2-oxo-1,2-dihydroquinolin-6-yl)amino)nicotinonitrile] | 0.29 | 3.87 | 
Cn1c(=O)ccc2cc(Nc3ccnc(Cl)c3C#N)ccc21 [Compound 2, 2-Chloro-4-((1-methyl-2-oxo-1,2-dihydroquinolin-6-yl)amino)nicotinonitrile] | 0.35 | 2.87 | 
CC(Nc1cc(=O)n(CC2CCC2)c2ccc(Nc3ccnc(Cl)c3C#N)cc12)c1ncccn1 (stereo not shown) [Compound 17b, 2-Chloro-4-((1-(cyclobutylmethyl)-2-oxo-4-((1-(pyrimidin-2-yl)ethyl)amino)-1,2-dihydroquinolin-6-yl)amino)nicotinonitrile] | 0.26 | 3.19 | 
CCCNc1cc(=O)n(C)c2ccc(Nc3cc(C(=O)O)nc(Cl)c3C#N)cc12 [Compound 11b, 6-Chloro-5-cyano-4-((1-methyl-2-oxo-4-(propylamino)-1,2-dihydroquinolin-6-yl)amino)picolinic Acid] | 0.28 | 2.32 | 
CN1CCN(c2cc(=O)[nH]c3ccc(Nc4ccnc(Cl)c4C#N)cc23)CC1 [Compound 8c, 2-Chloro-4-((4-(4-methylpiperazin-1-yl)-2-oxo-1,2-dihydroquinolin-6-yl)amino)nicotinonitrile] | 0.28 | 3.68 | 
Cn1c(=O)cc(NCCF)c2cc(Nc3cc(C(=O)O)nc(Cl)c3C#N)ccc21 [Compound 11c, 6-Chloro-5-cyano-4-((4-((2-fluoroethyl)amino)-1-methyl-2-oxo-1,2-dihydroquinolin-6-yl)amino)picolinic Acid] | 0.29 | 3.46 | 
Cn1cc(-c2cc(=O)[nH]c3ccc(Nc4ccnc(Cl)c4C#N)cc23)cn1 [Compound 8e, 2-Chloro-4-((4-(1-methyl-1H-pyrazol-4-yl)-2-oxo-1,2-dihydroquinolin-6-yl)amino)nicotinonitrile] | 0.30 | 3.54 | 
CNC(=O)C(C)Nc1cc(=O)[nH]c2ccc(Nc3ccnc(Cl)c3C#N)cc12 (stereo not shown) [Compound 12a, 2-((6-((2-Chloro-3-cyanopyridin-4-yl)amino)-2-oxo-1,2-dihydroquinolin-4-yl)amino)-N-methylpropanamide] | 0.31 | 4.66 | 
CNC(=O)C(Nc1cc(=O)[nH]c2ccc(Nc3ccnc(Cl)c3C#N)cc12)C1CC1 (stereo not shown) [Compound 12d, 2-((6-((2-Chloro-3-cyanopyridin-4-yl)amino)-2-oxo-1,2-dihydroquinolin-4-yl)amino)-2-cyclopropyl-N-methylacetamide] | 0.28 | 3.97 | 
CNC(=O)CNc1cc(=O)[nH]c2ccc(Nc3ccnc(Cl)c3C#N)cc12 [Compound 12e, 2-((6-((2-Chloro-3-cyanopyridin-4-yl)amino)-2-oxo-1,2-dihydroquinolin-4-yl)amino)-N-methylacetamide] | 0.24 | 3.42 | 
Cc1cnc(C(C)Nc2cc(=O)n(C)c3ccc(Nc4ccnc(Cl)c4C#N)cc23)nc1 (stereo not shown) [Compound 24a, 2-Chloro-4-((1-methyl-4-((1-(5-methylpyrimidin-2-yl)ethyl)amino)-2-oxo-1,2-dihydroquinolin-6-yl)amino)nicotinonitrile] | 0.31 | 4.54 | 
CC(Nc1cc(=O)n(CC2CC2)c2ccc(Nc3ccnc(Cl)c3C#N)cc12)c1ncccn1 (stereo not shown) [Compound 17a, 2-Chloro-4-((1-(cyclopropylmethyl)-2-oxo-4-((1-(pyrimidin-2-yl)ethyl)amino)-1,2-dihydroquinolin-6-yl)amino)nicotinonitrile] | 0.26 | 3.48 | 
CCNc1cc(=O)n(C)c2ccc(Nc3cc(C(=O)O)nc(Cl)c3C#N)cc12 [Compound 11a, 6-Chloro-5-cyano-4-((4-(ethylamino)-1-methyl-2-oxo-1,2-dihydroquinolin-6-yl)amino)picolinic Acid] | 0.30 | 3.05 | 
Cn1c(=O)cc(NC(C)(C)c2ncc(C3CC3)cn2)c2cc(Nc3ccnc(Cl)c3C#N)ccc21 [Compound 25, 2-Chloro-4-((4-((2-(5-cyclopropylpyrimidin-2-yl)propan-2-yl)amino)-1-methyl-2-oxo-1,2-dihydroquinolin-6-yl)amino)nicotinonitrile] | 0.30 | 4.58 | 
CNC(=O)[C@@H](C)Nc1cc(=O)[nH]c2ccc(Nc3ccnc(Cl)c3C#N)cc12 [Compound 12b, (R)-2-((6-((2-Chloro-3-cyanopyridin-4-yl)amino)-2-oxo-1,2-dihydroquinolin-4-yl)amino)-N-methylpropanamide] | 0.33 | 5.00 | 
Cn1c(=O)n(C)c2cc(Nc3ccnc(Cl)c3C#N)ccc21 [Compound 1] | 0.35 | 3.09 | BCL6 TR-FRET pIC50 mean (BCL6 BTB domain [1]; mean of n replicates): 5.49 and 5.486; IC50 (BCL6 BTB domain [1]; read-out: BCL6 TR-FRET Geo Mean IC50, geometric mean of n replicates, supplement): 3.27 µM; IC50 (BCL6 BTB domain [1]; read-out: TR-FRET IC50 individual replicates, single replicates, italic values used 10nM BCL6, otherwise 1nM BCL6): 3.32 µM and 4.22 µM and 2.23 µM and 1.7 µM and 9.38 µM and 3.23 µM; IC50 (BCL6 BTB domain [2]; BCL6 TR-FRET Geo Mean IC50, geometric mean of n replicates, supplement): 3.27 µM; IC50 (BCL6 BTB domain [2]; TR-FRET IC50 individual replicates, single replicates, italic values used 10nM BCL6, otherwise 1nM BCL6): 2.47 µM
CN(C)c1cc(=O)[nH]c2ccc(Nc3ccnc(Cl)c3C#N)cc12 [Compound 8a, 2-Chloro-4-((4-(dimethylamino)-2-oxo-1,2-dihydroquinolin-6-yl)amino)nicotinonitrile] | 0.31 | 3.05 | 
CNC(=O)[C@H](C)Nc1cc(=O)[nH]c2ccc(Nc3ccnc(Cl)c3C#N)cc12 [Compound 12c, (S)-2-((6-((2-Chloro-3-cyanopyridin-4-yl)amino)-2-oxo-1,2-dihydroquinolin-4-yl)amino)-N-methylpropanamide] | 0.28 | 3.97 | 
CCNc1cc(=O)[nH]c2ccc(Nc3ccnc(Cl)c3C#N)cc12 [Compound 8f, 2-Chloro-4-((4-(ethylamino)-2-oxo-1,2-dihydroquinolin-6-yl)amino)nicotinonitrile] | 0.34 | 3.48 | 

Several values for one entry are separate records, joined by “and”; a condition that tells them apart may be missing. Equal entries are not always repeated. Where two headings read alike, the source gives them in different places.
